# Rows were chosen to be rich in hits. Some 1.7% of all compounds tested hit in one or more screens of this group.
# CDK5 p35 inh – blocks human CDK5/p35 kinase activity; Q00535+Q15078; Recombinant CDK5/p35, ADP-Glo luminescence, 60 min; inhibition, % at 10 µM; actives 0.01% (n = 330,000); AID 488839;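 active = highest replicate inhibition of at least 50% and at least 75% of replicates reaching 50%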;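 note: plate controls were DMSO neutral control for no effect and GW8510 at 10 µM for full effect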
# CAL PDZ FP-1 – inhibitors of human CAL PDZ peptide binding | AID 602252 | inhibition, % at 24.9 µM | actives 0.92% (n = 300,000) | Q9HD26 | purified CAL PDZ, TMR-peptide fluorescence polarization, 1 h;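 active = mean inhibition of at least 30% with at least half of replicates also reaching 30%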;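 note: 0% = DMSO neutral control and 100% = excess unlabeled competitor peptide PRC23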
# CAL PDZ FP-2 – human CAL PDZ-peptide interaction inhibition; actives 0.02% (n = 330,000); inhibition, % at 20 µM; Q9HD26; purified CAL PDZ, TMR-peptide fluorescence polarization, 1 h;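 active = highest replicate inhibition of at least 40%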;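 note: plate controls were DMSO neutral control wells for no effect and unlabeled competitor peptide control wells for full effect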
#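 material = purified tagged CAL PDZ domain construct (CerCALP) | buffer or medium = sodium phosphate/NaCl buffer pH 7.4 with TCEP, IgG, Thesit | reagent = TMR-labelled reporter peptide T*-PRC34 bound in PDZ groove | incubation = 1 h room-temperature incubation prior to read | measured by = fluorescence polarization (mP) | evaluation = percent inhibition from loss of millipolarization | control set = unlabelled peptide and DMSO controls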
# DYRK1A inh – blocks rat Dyrk1A kinase activity; inhibition, % at 12.5 µM; actives 0.43% (n = 310,000); Q63470; ADP-Glo luminescence, NFATc1 peptide; AID 504441; in the data active = inhibition above about 50%;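 note: plate controls were vehicle with enzyme for no effect and no enzyme for full effect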
# dFosB act – activators of mouse delta FosB homodimer | purified delta FosB, TAMRA-CDK5 oligo fluorescence polarization; percent of positive-control signal above neutral wells | P13346 | activation, % at 25 µM | actives 0.99% (n = 340,000);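 active = mean activation above about 17%, with every replicate also reaching it, limit read from the data, passing the limit was not always enough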
# Yeast UUG start – alters start codon recognition fidelity in yeast. S. cerevisiae UUG-firefly luciferase reporter, luminescence/redox ratio. activity score, % at 18.7 µM. 0.13% of 350,000 active. AID 602363;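 active = replicate mean at a twofold rise or more, about +100% in these data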;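 also: firefly luciferase made from a UUG start codon reports start codon fidelity; reporter light over untreated wells divided by growth signal over untreated wells; some hits fall short of that in this replicate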
# Active calls of the source: *; . = not tested or not shown.
SMILES,CDK5 p35 inh,CAL PDZ FP-1,CAL PDZ FP-2,DYRK1A inh,dFosB act,Yeast UUG start
CCSc1nc2nccnc2c(=O)[nH]1,-0.6,96.3*,0.4,.,6.1,-13.7
O=C(N[C@@H]1CC[C@@H](CCNC(=O)C2CC2)O[C@@H]1CO)c1ccncc1,.,.,.,.,.,13.4
O=C(NNS(=O)(=O)c1ccc(F)cc1)C1CC(c2cccnc2)=NO1 (configuration not stated),-1.1,74.3*,0.0,-0.2,-0.9,.
O=C(NNS(=O)(=O)c1ccccc1)C1CC(c2cccnc2)=NO1 (configuration not stated),0.7,2.6,-1.0,-0.6,10.9,.
COc1cc(C(=O)NCCC(=O)NC2CCCCC2)cc(OC)c1OC,-0.3,1.2,-2.9,-1.2,0.3,-6.9
COc1cc(C(=O)NCC2CCCCC2)cc(OC)c1OC,0.2,65.3*,-1.5,-4.3,5.7,-10.4
COc1cc(C(=O)NCCNC(=O)C2CCCNC2=O)cc(OC)c1OC (configuration not stated),-0.3,39.7*,0.0,.,-2.1,.
Nc1nc(C2CCCN2S(=O)(=O)c2ccc(Cl)cc2)cs1 (configuration not stated),0.3,45.7*,-3.4,-7.7,-11.1,-11.5
C[C@H](CO)N1C[C@H](C)[C@@H](CN(C)S(=O)(=O)c2ccc(Cl)cc2)Oc2c(NS(C)(=O)=O)cccc2C1=O,.,.,.,.,.,0.4
Cc1ccc(S(=O)(=O)Nc2ccc3c(c2)C(=O)N([C@H](C)CO)C[C@H](C)[C@@H](CN(C)Cc2ccncc2)O3)cc1,.,.,.,.,.,-12.2
O=C(COC(=O)CNC(=O)c1ccccc1Cl)NC1CCCC1,0.5,-2.3,0.5,-0.3,-1.6,-13.3
O=C(COC(=O)CNC(=O)c1ccccc1Cl)NC1CC1,-1.3,39.1*,1.3,.,1.4,-5.3
C[C@H]1CCCCO[C@@H](CN(C)C(=O)C2CCCCC2)[C@@H](C)CN([C@@H](C)CO)C(=O)c2cc(NC(=O)Cc3ccccc3)ccc2O1,.,.,.,.,.,4.7
Cc1ccc(NS(=O)(=O)c2cccc(C(=O)NC3CCN(Cc4ccccc4)CC3)c2)cc1,-1.3,89.0*,-0.6,0.1,-2.6,-15.2
Cc1ccc(-c2nn3c(C)nnc3c3ccccc23)cc1S(=O)(=O)NCCN1CCOCC1,0.0,.,-3.3,-4.0,-5.0,-13.9
Cc1ccc(-c2n[nH]c(=O)c3ccccc23)cc1S(=O)(=O)NCCN1CCOCC1,1.0,42.3*,.,10.0,0.5,-3.6
CO[C@H]1CN(C)C(=O)c2ccc(NC(=O)Nc3ccccc3F)cc2OC[C@H](C)NC[C@@H]1C,.,.,.,.,.,5.4
CC(C)c1cn(CC[C@@H]2CC[C@@H](NC(=O)c3cccc(F)c3)[C@H](CO)O2)nn1,.,.,.,.,.,-6.4
CN(C)CCCN(C(=O)c1ccc(S(=O)(=O)N2CCc3ccccc3C2)cc1)c1nc2ccc(F)cc2s1,1.1,-6.0,-4.0,8.9,68.7*,-5.5
Cc1cc(C)c2sc(N(CCCN(C)C)C(=O)c3ccc(S(=O)(=O)N4CCCc5ccccc54)cc3)nc2c1,-0.7,2.4,-1.7,1.2,-10.6,-3.6
CN(C)CCCN(C(=O)c1ccc(S(=O)(=O)N2CCc3ccccc3C2)cc1)c1nc2c(F)cccc2s1,-0.2,-2.2,-2.5,-0.5,-1.5,19.9
Cc1ccc2nc(N(CCCN(C)C)C(=O)c3ccc(S(=O)(=O)N4CCc5ccccc5C4)cc3)sc2c1,0.2,-1.1,-4.9,-5.5,15.3,-7.1
Cc1cc(C)c2sc(N(CCCN(C)C)C(=O)c3ccc(S(=O)(=O)N4CCc5ccccc5C4)cc3)nc2c1,1.2,-3.0,-0.3,3.4,100.4*,-8.7
Cc1cccc2sc(N(CCCN(C)C)C(=O)c3ccc(S(=O)(=O)N4CCc5ccccc5C4)cc3)nc12,-1.6,-2.7,-1.9,-1.5,62.2*,17.4
COc1ccccc1NC(=O)N[C@H]1CC[C@@H](CC(=O)N2CCC(Cc3ccccc3)CC2)O[C@H]1CO,.,.,.,.,.,19.2
O=C(Nc1cc(F)ccc1F)N1C[C@@H]2[C@H](c3ccccc31)[C@@H](CO)N2C(=O)c1ccccc1,.,.,.,.,.,1.0
COC(=O)[C@@H]1C[C@@H](C(=O)O)[C@H](C)C1(C)C,1.7,42.6*,0.8,-13.8,0.7,-7.9
COc1ccc(C2NCCc3c2[nH]c2ccccc32)cc1COc1ccc(F)cc1 (configuration not stated),-1.5,11.2,-3.0,-0.6,61.8*,.
COc1ccc(C2NCCc3c2[nH]c2ccccc32)cc1CN1CCc2cc(OC)c(OC)cc2C1C (configuration not stated),0.6,-4.2,-3.0,-4.1,63.3*,.
COc1ccc(C2NC(C(=O)O)Cc3c2[nH]c2ccccc32)cc1CN1CCN(c2ccc(F)cc2)CC1 (configuration not stated),1.4,-13.2,-3.6,-2.5,1.3,-4.1
CC(C)NC(=O)N[C@H]1CC[C@H](CC(=O)O)O[C@H]1CO,.,.,.,.,.,-9.5
O=C(Nc1cccc([N+](=O)[O-])c1)c1ccc(N2CCCC2=O)cc1,-0.8,68.9*,-0.2,-3.0,2.8,.
O=C(Nc1nc2nc(-c3ccccc3)cc(-c3ccccc3)n2n1)c1ccco1,0.9,-0.3,-1.9,-0.4,67.8*,-22.3
CC(=O)Nc1nc2nc(-c3ccccc3)cc(-c3ccccc3)n2n1,1.3,-1.5,-1.6,-5.5,-8.0,-7.2
COc1cc(CC(=O)NC2CCCc3ccccc32)cc(OC)c1OC (configuration not stated),-2.3,42.9*,-0.7,-3.5,-5.7,-5.4
Cc1ccc2nc(SCC(=O)NC3CCCc4ccccc43)[nH]c2c1 (configuration not stated),-1.8,83.5*,-1.3,-5.3,5.2,.
O=C(CSc1cc(Cl)ccc1Cl)NC1CCCc2ccccc21 (configuration not stated),0.2,-6.1,-3.1,-3.7,0.6,-18.1
Cc1ccc(NC(=O)CN(C)CC(=O)NC2CCCc3ccccc32)cc1 (configuration not stated),0.8,-4.2,-2.0,-4.1,-10.4,.
CCOc1ccc(NC(=O)CN(C)CC(=O)NC2CCCc3ccccc32)cc1OCC (configuration not stated),1.2,40.3*,0.1,0.5,-10.4,1.7
C[C@H](CO)N1C[C@H](C)[C@H](CN(C)C(=O)c2ccccc2)OCCCC[C@H](C)Oc2ccc(NS(=O)(=O)c3ccccc3)cc2C1=O,.,.,.,.,.,6.2
C[C@@H]1CN([C@H](C)CO)S(=O)(=O)c2ccc(C#CC3CC3)cc2O[C@@H]1CN(C)C(=O)C1CC1,.,.,.,.,.,13.6
C[C@H](CO)N1C[C@H](C)[C@@H](CN(C)Cc2ccccc2)OCCCC[C@H](C)Oc2ccc(NC(=O)C3CCCCC3)cc2C1=O,.,.,.,.,.,23.1

# One compound at a time, as listed above. Order of values: CDK5 p35 inh, CAL PDZ FP-1, CAL PDZ FP-2, DYRK1A inh, dFosB act, Yeast UUG start
# O=C(CSc1cc(Cl)ccc1Cl)NC1CCCc2ccccc21 (configuration not stated) as listed: 0.2, -6.1, -3.1, -3.7, 0.6, -18.1
# O=C(Nc1nc2nc(-c3ccccc3)cc(-c3ccccc3)n2n1)c1ccco1 as listed: 0.9, -0.3, -1.9, -0.4, 67.8*, -22.3
# C[C@@H]1CN([C@H](C)CO)S(=O)(=O)c2ccc(C#CC3CC3)cc2O[C@@H]1CN(C)C(=O)C1CC1 as listed: ., ., ., ., ., 13.6
# CCOc1ccc(NC(=O)CN(C)CC(=O)NC2CCCc3ccccc32)cc1OCC (configuration not stated) as listed: 1.2, 40.3*, 0.1, 0.5, -10.4, 1.7
# O=C(Nc1cccc([N+](=O)[O-])c1)c1ccc(N2CCCC2=O)cc1 as listed: -0.8, 68.9*, -0.2, -3.0, 2.8, .

# Screening data as filed in PubChem BioAssay.
